These results are taken from PubChem BioAssay AID836 (Columbia University Molecular Screening Center, 2007).

Only a part is listed here, and it is no random draw. Active and inactive are the calls of the source.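 The calls were made as follows: active = inhibition above the batch mean plus 3 SD and confirmed as a hit by visual image inspection (cut at about 30% in these data, passing the limit was not always enough); inconclusive = above the inhibition threshold but rejected on visual inspection; inactive = the rest.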

This test in a line: modifiers of F-actin cytoskeleton organization, primary screen, imaging, HUVEC, phalloidin staining, high-content imaging (AID 836). As to conditions: HUVEC TNFa F-actin phalloidin imaging, at 2 µM, stronger effect = higher value.
For the compound `COc1ccccc1OP(C)(=O)Nc1ccc(C)c(C)c1` (stereo not drawn), the inhibition is inactive: 11.7%.
On to `Cc1nc2ccc3ccccc3c2o1.O=[N+]([O-])c1cc([N+](=O)[O-])c(O)c([N+](=O)[O-])c1`, for which the inhibition is inactive: 7.5%.
For `CN(C)CCOC(=O)C(O)(c1ccccc1)C1CCCC1` (stereo not drawn), the inhibition was inactive: 1.5%.
Regarding `CP(=O)(Nc1ccccn1)Oc1ccccc1` (stereo not drawn), the inhibition is inactive: 25.1%.
For `COc1ccccc1OP(C)(=O)Nc1ccc(C)cc1C` (stereo not drawn), the inhibition was inactive: -1.4%.
With `CCc1ccc(OP(C)(=O)O)cc1`, the inhibition was inactive: 3.4%.
In the case of `Cc1c(NP(C)(=O)Oc2ccc(C(C)C)cc2)c(=O)n(-c2ccccc2)n1C` (stereo not drawn), the inhibition is inactive: 6.7%.
The value for `COc1ccccc1OP(C)(=O)Nc1c(C)n(C)n(-c2ccccc2)c1=O` (stereo not drawn) was inactive: -29.4%; that for `CP(=O)(Oc1ccccc1)N1CCOC1=O` (stereo not drawn) was inactive: -13.4%; that for `CCN(CC)CC(O)COC(=O)C(O)(c1ccccc1)C1CCCCC1` (stereo not drawn) was inactive: 29.1%.
Take `CC(C)(C)c1ccc(OP(C)(=O)O)cc1`: the inhibition was inactive: -2.4%.
Take `CP(=O)(Nc1ccc(Cl)cc1)Oc1ccc(F)cc1` (stereo not drawn): the inhibition was inactive: -8.1%.
The value for `CP(=O)(OC12CC3CC(CC(C3)C1)C2)OC12CC3CC(CC(C3)C1)C2` was inactive: -8.8%.
`CN(C)CCOC(=O)C(O)(c1ccccc1)C1CCCCC1` (stereo not drawn): the inhibition was inactive: -5.6%.
With `COc1ccc(OP(C)(=O)Nc2cccc(Br)c2)cc1` (stereo not drawn), the inhibition was inactive: 8.5%.
In the case of `CCOP(C)(=S)SCC(=O)NC(C)(CC)C(=O)O` (stereo not drawn) it was inactive: 3.7%; in that of `CP(=O)(Nc1ccc2c(c1)OCCO2)Oc1ccccc1` (stereo not drawn), inactive: 6.6%; in that of `CP(=O)(Nc1ccccc1F)Oc1ccccc1` (stereo not drawn), inactive: 23.8%.
Consider `CP(=O)(Nc1ccccc1)Oc1ccc(F)cc1` (stereo not drawn), for which the inhibition was inactive: 5.8%.
For the compound `CCN(CC)CCCOC(=O)C(O)(c1ccccc1)C1CCCCC1` (stereo not drawn), the inhibition was inactive: -2.5%.
As for `Cc1cc(C)cc(OP(C)(=O)Nc2ccc(C)cc2C)c1` (stereo not drawn), the inhibition is inactive: 8.9%.
As for `Cc1ccc(C)c(NP(C)(=O)Oc2ccccc2)c1` (stereo not drawn), the inhibition is inactive: -2.1%.
For `Cc1cc(C)cc(OP(C)(=O)Nc2ccccn2)c1` (stereo not drawn), the inhibition was inactive: -3.4%.
The value for `Cc1nc2ccc3ccccc3c2s1.O=[N+]([O-])c1cc([N+](=O)[O-])c(O)c([N+](=O)[O-])c1` was inactive: -3.3%; that for `COc1ccccc1OP(C)(=O)Nc1c(C)cccc1C` (stereo not drawn) was inactive: 28.3%; that for `CP(=S)(Nn1cnnc1)Oc1ccccc1` (stereo not drawn) was inactive: 9.2%.
For `CP(=O)(NC(=O)Nc1ccccc1)Oc1ccccc1` (stereo not drawn), the inhibition was inactive: 1.5%.
In the case of `CP(=O)(Nc1ccccn1)Oc1ccc(Cl)cc1` (stereo not drawn) it was inactive: 1.9%.
